Test results: article PMC9959676 (Molecules, 2023)

How the values were obtained:
[1] = DPPH free radical scavenging assay; settings: 1.0 mL sample 0.5 mg/mL + 2 mL DPPH 0.2 mg/mL, 30 min, 517 nm
thoracic aorta segments = test: Inhibition of phenylephrine-induced contraction on isolated aorta rings; parameters: species or system male Wistar rats; settings: compounds 10^−4 M in organ bath, phenylephrine 10^−6 M, n = 5
Bacillus pumilus = test: Antibacterial agar-well diffusion; type: cell-based; settings: sample 100 mg/5 mL in DMSO; ceftriaxone sodium 20 mg/10 mL; 37 °C, 24 h; 6 mm wells
urease = urease (Canavalia ensiformis, UniProt P07374)

SMILES: CCCCC(=O)N(Cc1ccc(-c2ccccc2-c2nn[nH]n2)cc1)C(C(=O)Oc1c([N+](=O)[O-])cc([N+](=O)[O-])cc1[N+](=O)[O-])C(C)C (centres unmarked)
- %Age Inhibition ± SEM [1]: 92.1 ± 0.82%
- %ge inh. of Phenylephrine Cont. (±SEM) (thoracic aorta segments): 69.6 ± 5.3%
- Zone of Inhibition Gram +ve Bacteria B.pumilus Mean ± SEM (Bacillus pumilus): 11.01 ± 0.89 millimeters
- pIC50 (urease; read-out: IC50 ± SEM, urease, pH 7.0, 37 °C): 5.81
- folds more urease inhibition than standard Thiourea (urease; relative to Thiourea IC50): 3 folds

pIC50: −log10 of the molar value.
